{
  "source": "paper PMC10165273",
  "about": "“Itch receptor MRGPRX4 interacts with the receptor activity–modifying proteins” (The Journal of Biological Chemistry, 2023)",
  "system": "mock-transfected HEK293T cells",
  "assay": "IP1 accumulation, mock-transfected cells",
  "type": "cell-based, human",
  "set-up": "IP1 Basal / IP1 Emax / IP1 span: unit not given here",
  "details": "for IP1 Basal / IP1 Emax / IP1 span: Mock; for normalized IP1 accumulation: mock",
  "key": {"[1]": {"details": "HA-CALCRL-1D4 series (Fig. S4J-L)"}, "[2]": {"details": "HA-CALCRL-GFP10-1D4 series (Fig. S4G-I)"}},
  "note": "Values joined by “and” are separate entries in the source; they are usually repeats but may differ in a detail not shown here. Equal entries are not always repeated.",
  "data": [
    {"molecule": "CC(C)C[C@H](NC(=O)CNC(=O)[C@H](C)NC(=O)[C@H](CC(C)C)NC(=O)[C@H](CCCNC(=N)N)NC(=O)[C@H](Cc1c[nH]cn1)NC(=O)[C@@H](NC(=O)[C@@H](NC(=O)[C@@H]1CSSC[C@H](NC(=O)[C@H](C)N)C(=O)N[C@@H](CC(=O)O)C(=O)N[C@@H]([C@@H](C)O)C(=O)N[C@@H](C)C(=O)N[C@@H]([C@@H](C)O)C(=O)N1)C(C)C)[C@@H](C)O)C(=O)N[C@@H](CC(C)C)C(=O)N[C@@H](CO)C(=O)N[C@@H](CCCNC(=N)N)C(=O)N[C@@H](CO)C(=O)NCC(=O)NCC(=O)N[C@H](C(=O)N[C@H](C(=O)N[C@@H](CCCCN)C(=O)N[C@@H](CC(N)=O)C(=O)N[C@@H](CC(N)=O)C(=O)N[C@@H](Cc1ccccc1)C(=O)N[C@H](C(=O)N1CCC[C@H]1C(=O)N[C@H](C(=O)N[C@@H](CC(N)=O)C(=O)N[C@H](C(=O)NCC(=O)N[C@@H](CO)C(=O)N[C@@H](CCCCN)C(=O)N[C@@H](C)C(=O)N[C@@H](Cc1ccccc1)C(N)=O)C(C)C)[C@@H](C)O)C(C)C)C(C)C)C(C)C", "note": "[CGRP, calcitonin gene-related peptide]", "values": [
      {"measurement": "IP1 Basal", "setting": "[1]", "result": "Unstable"},
      {"measurement": "IP1 Emax", "setting": "[1]", "result": -0.8959},
      {"measurement": "IP1 span", "setting": "[1]", "result": "Unstable"},
      {"measurement": "IP1 Basal", "setting": "[2]", "result": 0.4062},
      {"measurement": "IP1 Emax", "setting": "[2]", "result": 1.291},
      {"measurement": "IP1 span", "setting": "[2]", "result": 0.8853},
      {"measurement": "normalized IP1 accumulation", "setting": "log [agonist] (M) -10", "result": "0.9393 and 0.5823 and 0.6814"},
      {"measurement": "normalized IP1 accumulation", "setting": "log [agonist] (M) -11.5229", "result": 0.2933}
    ]}
  ]
}
